Experimental data as given in patent publication US20240180139A1, “SOLVENT FOR INSECT REPELLENT ACTIVE INGREDIENT AND INSECT REPELLENT SYSTEM USING SAME” (Thermacell Repellents, Inc., priority 2021, published 2024).

Assay: release / vaporization rate through heated wick of dispensing device
Type: physicochemical
Conditions: single glycol solvent by itself, against target release rate
Description: Once candidate materials are identified, considerations of whether release rates relative to the selected glycols would be sufficient to deliver good spatial mosquito repellency. […] In one embodiment, an approximate 70:30 solvent ratio of two solvents is provided.

With hexylene glycol the “volatilization of solvent by itself” value was “too fast”.
